Test results from patent US20260078119A1, “DEGRADER COMPOUNDS AND USES THEREOF” (Bristol-Myers Squibb Company, priority 2024, published 2026).

Protein sequences, listed by entry. Tags and fused reporters are not part of them.
UniProt Q05397, whole entry: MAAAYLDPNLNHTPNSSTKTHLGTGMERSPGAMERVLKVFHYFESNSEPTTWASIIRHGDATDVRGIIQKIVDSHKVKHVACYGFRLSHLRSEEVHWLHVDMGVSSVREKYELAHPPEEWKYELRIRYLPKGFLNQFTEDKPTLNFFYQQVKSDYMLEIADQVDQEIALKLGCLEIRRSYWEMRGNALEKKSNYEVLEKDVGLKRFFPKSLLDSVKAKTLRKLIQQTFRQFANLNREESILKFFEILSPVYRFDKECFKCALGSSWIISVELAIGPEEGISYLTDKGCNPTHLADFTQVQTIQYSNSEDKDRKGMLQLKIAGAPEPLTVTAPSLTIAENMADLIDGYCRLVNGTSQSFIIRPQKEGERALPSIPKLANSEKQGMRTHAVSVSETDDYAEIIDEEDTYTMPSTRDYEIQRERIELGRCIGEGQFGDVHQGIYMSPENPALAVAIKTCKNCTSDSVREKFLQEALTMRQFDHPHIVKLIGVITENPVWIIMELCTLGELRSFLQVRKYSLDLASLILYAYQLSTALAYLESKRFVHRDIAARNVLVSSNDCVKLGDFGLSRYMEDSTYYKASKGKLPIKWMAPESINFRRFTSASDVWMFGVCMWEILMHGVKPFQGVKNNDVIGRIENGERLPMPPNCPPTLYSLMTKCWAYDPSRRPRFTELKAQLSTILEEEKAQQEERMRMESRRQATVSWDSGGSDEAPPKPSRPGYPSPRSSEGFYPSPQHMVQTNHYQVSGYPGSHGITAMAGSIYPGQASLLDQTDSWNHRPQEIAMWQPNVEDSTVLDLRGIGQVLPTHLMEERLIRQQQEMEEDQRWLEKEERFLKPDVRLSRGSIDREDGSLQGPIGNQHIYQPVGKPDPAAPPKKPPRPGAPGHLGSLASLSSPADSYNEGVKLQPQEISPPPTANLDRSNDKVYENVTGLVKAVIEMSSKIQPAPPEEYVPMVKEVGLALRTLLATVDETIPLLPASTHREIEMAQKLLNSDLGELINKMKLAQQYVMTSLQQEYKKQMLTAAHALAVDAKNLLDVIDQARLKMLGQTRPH

Key:
FAK = FAK (Homo sapiens, UniProt Q05397); experiment: FAK-HiBiT Degradation Assay
From the text: To generate JHH-4-FAK-HiBiT cells for the FAK degradation assay, JHH-4 cells (Japanese Collection of Research Biosources Cell Bank, Japan) were transfected with ribonucleoprotein reagents to introduce, by CRISPR-Cas9 editing, the homozygous knock-in of a HiBiT tag (Promega Corporation, Madison, WI) to the C-terminus of the FAK gene in its natural genomic locus. Clonal cell populations were established by expanding single cells after CRISPR-Cas9 editing, with a clonal cell line named JHH-4-FAK-HiBiT clone d01 confirmed by next generation DNA sequencing to contain the expected HiBiT edited FAK gene and was selected for FAK degradation screening. Cells were selected and maintained in complete DMEM media (DMEM, 10% Heat Inactivated FBS, and Non-Essential Amino Acids at 37° C. and 5% CO2). Cells were passaged every 3-4 days by reseeding 0.5×10^6 cells in a T75 flask.
Cells were dispensed into 384-well white plates (Corning #3570, NY) that were pre-spotted with compounds using an acoustic dispenser (Echo acoustic transfer system, Beckman Coulter Life Sciences, Carlsbad, CA) as a 10-point dose response curve with a 3-fold dilution starting at 1 μM and including a DMSO control. Twenty-five microliters of media containing 2000 JHH-4-FAK-HiBiT Clone d01 cells was dispensed per well. […] After 10 minutes, luminescence was read on a PHERAstar luminometer (BMG Labtech, Cary, NC). […]

CAL-51 cells = experiment: CAL-51 Cell Proliferation Assay
From the text: CAL-51 cells were obtained from Bristol Myers Squibb internal cell banks (originally sourced from DSMZ-German Collection of Microorganisms and Cell Cultures GmbH, Germany) and cultured in RPMI complete media (RPMI-1640, 10% Fetal Bovine serum, 1× Antibiotic-Antimycotic, and 1× Non-Essential Amino Acids). Compounds were dispensed into 384-well plates using an acoustic dispenser (Beckman Coulter Life Sciences, Carlsbad, CA) in duplicate with 14 compounds on each plate. For each compound, a 10-point dose response was printed at 4-fold dilutions starting at 10 μM. The DMSO concentration was kept constant for a final assay concentration of 0.1% per well assuming 50 uL final media volume. Compound plates were sealed and frozen at −20° C. until use.
For each assay batch, compound plates were thawed and allowed to reach room temperature, and cells were seeded at 350 cells per well in 50 μl complete RPMI media. After 120 hours of incubation at 37° C. and 5% CO2, cells were lysed by addition of 25 μL of Cell-Titer-Glo Reagent (Promega Corporation, Madison, WI), as per manufacturer's instructions, protected from light, shaken for 20 minutes, and total luminescence read by a CLARIOstar Plus plate reader (BMG LabTech, Cary, NC). Total luminescence signal is linearly correlated with cell number remaining in the well. […]

SMILES: O=C1CC[C@H](N2Cc3cc(Cn4ncc5c(-c6ncc(C(F)(F)F)cc6F)cc(N6CC[C@H](O)C6)nc54)ccc3C2=O)C(=O)N1
- FAK HiBiT Ymin (FAK; lower limit of the four parameter fit (value A), Ymax derived using DMSO control, JHH-4-FAK-HiBiT cells, two hours): 62.22
- EC50 (FAK; read-out: FAK HiBiT EC50, JHH-4-FAK-HiBiT clone d01 cells, two hours incubation, 10-point dose response, 3-fold dilution starting at 1 μM, Nano-Glo HiBiT luminescence): 35 nM
- CAL-51 Prolif Ymin (CAL-51 cells; minimal percent of DMSO control observed in the concentrations tested (Ymin-obs), 120 hours): 79.34
- EC50 (CAL-51 cells; read-out: CAL-51 Prolif EC50, 120 hours incubation, 10-point dose response, 4-fold dilutions starting at 10 μM, Cell-Titer-Glo): 2040 nM
